The assay deals with RS4;11 cells. The assay can be described thus: RS4;11 cell viability assay (CellTiter Glo).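 Also: acute lymphoblastic leukemia line RS4,11, EC50 derived from percentage of viable cells after treatment relative to untreated controls, cell killing taken as a measure of Bcl-2 inhibition.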 It is filed as cell-based. As to conditions: 50,000 cells per well, 10% human serum, 48 hours. (ATP-based viability assays read luminescence as a measure of living cells.)

For `CC1(C)CCC(CN2CCN(c3ccc(C(=O)NS(=O)(=O)c4ccc(OCC5C[C@@H]6C[C@H]5[C@H](O)[C@@H]6O)c([N+](=O)[O-])c4)c(Oc4cnc5[nH]ccc5c4)c3)CC2)=C(c2ccc(Cl)cc2)C1` (stereo partly drawn) [Example 203, 4-(4-{[2-(4-chlorophenyl)-4,4-dimethylcyclohex-1-en-1-yl]methyl}piperazin-1-yl)-N-[(4-{[(1R,4R,5R,6S)-5,6-dihydroxybicyclo[2.2.1]hept-2-yl]methoxy}-3-nitrophenyl)sulfonyl]-2-(1H-pyrrolo[2,3-b]pyridin-5-yloxy)benzamide], the response was half-maximal at 22.1 nM (EC50). This lies in the double-digit nanomolar range.
In the case of `CC1(C)CCC(CN2CCN(c3ccc(C(=O)NS(=O)(=O)c4ccc(OCC5C[C@@H]6C[C@H]5[C@@H](O)[C@H]6O)c([N+](=O)[O-])c4)c(Oc4cnc5[nH]ccc5c4)c3)CC2)=C(c2ccc(Cl)cc2)C1` (stereo partly drawn) [Example 204, 4-(4-{[2-(4-chlorophenyl)-4,4-dimethylcyclohex-1-en-1-yl]methyl}piperazin-1-yl)-N-[(4-{[(1R,4R,5S,6R)-5,6-dihydroxybicyclo[2.2.1]hept-2-yl]methoxy}-3-nitrophenyl)sulfonyl]-2-(1H-pyrrolo[2,3-b]pyridin-5-yloxy)benzamide], the EC50 – broadly, the concentration giving half of the maximal effect – is 165 nM.

The values are drawn from US20240043404A1 (AbbVie Inc., priority 2009, published 2024).
